Values of other authors as cited in patent publication US8188055B2, “Inactivators of O6-alkylguanine-DNA alkyltransferase” (The United States of America, as represented by the …, priority 2007, dated 2012).
Read-outs that look alike come from different tables or passages of the source.

Target: T1, human alkyltransferase (Homo sapiens, UniProt P16455)
T1 sequence (P16455 1-207): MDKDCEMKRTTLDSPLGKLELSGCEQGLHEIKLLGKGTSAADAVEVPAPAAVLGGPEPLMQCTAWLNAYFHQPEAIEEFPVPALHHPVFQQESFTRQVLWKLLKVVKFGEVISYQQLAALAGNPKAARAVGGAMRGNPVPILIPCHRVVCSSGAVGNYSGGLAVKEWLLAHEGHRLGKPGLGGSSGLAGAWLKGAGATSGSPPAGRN
Conditions: previously published, read-out: ED50 for inactivation of alkyltransferase, cited from earlier work

Nc1nc(OCc2ccccc2)c2nc[nH]c2n1 [O^6-benzylguanine]
EC50 (+DNA): 100 nM | EC50 (−DNA): 300 nM
